Test results published in patent US20210348119A1, “COMPOSITIONS AND METHODS FOR CELL CULTURE” (The United States of America as Represented By The …, priority 2018, published 2021).

Test system: H9 cells
Experiment: qHTS for survival of dissociated H9 cells (CellTiter-Glo, 24 hours after seeding)
Format: cell-based, human
Text: FIG. 2 schematically illustrates qHTS procedure.
All the screed compounds were received pre-plated at the pre-determined concentrations. […] Curve classification is explained in Huang et al. “Chemical genomics profiling of environmental chemical modulation of human nuclear receptors” Environ. Health. Perspect.

Q: `COc1ccc(-c2c(C)c(C(=O)NN3CCCCC3)nn2-c2ccc(Cl)cc2Cl)cc1` [NIDA-41020] was tested. Which “Max (maximum activity value from all tested concentrations)” value (H9 cell survival normalized to 10 μM Y-27632 (taken to be 100%)) did it give?
A: Its value is 26.91%.

Q: What about the AC50 (H9 cell survival, CellTiter-Glo 24 hours after seeding, read-out: AC50 (concentration at 50% efficacy)) of the same compound?
A: The AC50 was 23.3 µM.

Q: And the “Efficacy (activity range between predicted activities at zero and infinite doses, Hill equation)” value (H9 cell survival, normalized to 10 μM Y-27632)?
A: The value was 30.5.
